Measurements from ChEMBL document CHEMBL1129695, “Synthesis and structure-activity relationships of 6-substituted androst-4-ene analogs as aromatase inhibitors” (J Med Chem, 1996).
pIC50, pKi: −log10 of the molar value.

Chains of the proteins cited; added tags and fusions are not shown. Lines headed by an entry give the natural chain unless they say otherwise; changes in a name come on top.
UniProt P11511: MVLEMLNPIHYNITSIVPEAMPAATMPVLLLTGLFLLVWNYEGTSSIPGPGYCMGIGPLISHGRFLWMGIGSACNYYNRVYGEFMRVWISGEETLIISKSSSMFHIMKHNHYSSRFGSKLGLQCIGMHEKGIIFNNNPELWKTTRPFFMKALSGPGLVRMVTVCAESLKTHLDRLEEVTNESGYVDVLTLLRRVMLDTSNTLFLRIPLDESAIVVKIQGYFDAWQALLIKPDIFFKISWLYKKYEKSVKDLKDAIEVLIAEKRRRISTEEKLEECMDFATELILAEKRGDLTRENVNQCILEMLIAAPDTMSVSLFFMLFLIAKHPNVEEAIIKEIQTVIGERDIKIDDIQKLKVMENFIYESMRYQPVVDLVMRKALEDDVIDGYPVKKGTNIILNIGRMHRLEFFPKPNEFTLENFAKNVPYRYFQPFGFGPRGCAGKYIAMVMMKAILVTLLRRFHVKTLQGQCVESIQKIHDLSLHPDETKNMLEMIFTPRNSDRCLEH

Key:
Aromatase [1] = molecular target: T1, Aromatase (Homo sapiens, UniProt P11511)
Aromatase [2] = molecular target: T1, Aromatase; remark: listed apart in the source

## CC12CCC3C(C[C@H](O)C4=CCCCC43C)C1CCC2=O (stereo partly drawn)
Aromatase [1]
  pIC50: 6.72
Aromatase [2]
  pKi: 7.68

## C[C@]12CCCC=C1CC[C@@H]1[C@@H]2CC[C@]2(C)C(=O)CC[C@@H]12
Aromatase [2]
  pKi: 8.17
